Test: Displacement of [131I]-[D-Ala2,4'-I-Phe8]alpha-Neoendorphin from opioid receptor in CD-1 mouse brain after 90 mins by competitive binding assay
Conditions: strain CD-1, Brain

## CN(C(=O)Cc1ccc(Cl)c(Cl)c1)C1CCCCC1N1CCCC1 (stereo unspecified)
  Ki: > 500 nM

Source: ChEMBL document CHEMBL2407029 (Bioorg Med Chem Lett, 2013)
